Measurements reported in patent US10800739B2, “4-carboxamido-isoindolinone derivatives as selective PARP-1 inhibitors” (NERVIANO MEDICAL SCIENCES S.r.l, priority 2012, dated 2020).
Structures can show the parent of a compound that is named as a salt.

The chains behind the UniProt entries cited, without tags or fusion partners. Where a name states a change or a piece, a line headed by the entry shows the natural chain unless it says otherwise.
UniProt Q9UGN5: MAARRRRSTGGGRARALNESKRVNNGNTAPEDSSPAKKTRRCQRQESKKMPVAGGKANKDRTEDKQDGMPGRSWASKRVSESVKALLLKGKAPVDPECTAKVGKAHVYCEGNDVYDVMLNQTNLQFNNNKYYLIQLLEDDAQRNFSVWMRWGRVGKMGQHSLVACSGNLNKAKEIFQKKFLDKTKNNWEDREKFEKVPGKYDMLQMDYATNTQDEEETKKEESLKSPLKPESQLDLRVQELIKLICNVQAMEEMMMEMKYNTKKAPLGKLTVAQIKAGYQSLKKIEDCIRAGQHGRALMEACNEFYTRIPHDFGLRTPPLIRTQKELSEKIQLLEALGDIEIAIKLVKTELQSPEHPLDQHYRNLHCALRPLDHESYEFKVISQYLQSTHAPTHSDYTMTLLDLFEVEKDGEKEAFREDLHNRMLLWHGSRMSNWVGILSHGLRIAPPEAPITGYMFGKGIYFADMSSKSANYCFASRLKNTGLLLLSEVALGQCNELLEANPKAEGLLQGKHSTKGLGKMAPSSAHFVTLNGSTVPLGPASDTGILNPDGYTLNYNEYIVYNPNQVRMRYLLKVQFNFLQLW

target: PARP-2 (Homo sapiens (Human), UniProt Q9UGN5); experiment: Fluorescence polarization displacement assay with probe of formula (IP), PARP-2; assay type: binding; conditions: read-out: PARP-2 (DC50 μM); probe P1

Structure (SMILES) | DC50
NC(=O)c1cccc2c1C(=O)N(CCN1CCCCC1)C2 [(4), 3-oxo-2-(2-piperidin-1-yl-ethyl)-2,3-dihydro-1H-isoindole-4-carboxylic Acid Amide] | 1.92 µM
NC(=O)c1cccc2c1C(=O)N(CCN1CCOCC1)C2 [(5), 2-(2-morpholin-4-yl-ethyl)-3-oxo-2,3-dihydro-1H-isoindole-4-carboxylic Acid Amide] | 1.64 µM
CN1CCN(CCCN2Cc3cccc(C(N)=O)c3C2=O)CC1 [(21), 2-[3-(4-methyl-piperazin-1-yl)-propyl]-3-oxo-2,3-dihydro-1H-isoindole-4-carboxylic Acid Amide] | > 10 µM
NC(=O)c1cccc2c1C(=O)N(CCCN1CCC(N3CCCCC3)CC1)C2 [(26), 2-(3-[1,4′]bipiperidinyl-1′-yl-propyl)-3-oxo-2,3-dihydro-1H-isoindole-4-carboxylic Acid Amide Dihydrochloride] | > 10 µM
NC(=O)c1cccc2c1C(=O)N(C1CCN(Cc3ccccc3)CC1)C2 [(30), 2-(1-benzyl-piperidin-4-yl)-3-oxo-2,3-dihydro-1H-isoindole-4-carboxylic Acid Amide] | > 10 µM
